According to patent publication US5804410:

Target: human neutrophile elastase (human) (UniProt P08246)

An Inhibition (%) of 100% was found for α1-antitrypsin in this work.
